Values quoted from earlier work as cited in US10172953B2, “XTEN conjugate compositions and methods of making same” (Amunix Operating Inc., priority 2012, dated 2019).

Details: unmodified peptide/protein (Fxa: plasma half-life); cited from earlier work

For `CC[C@H](C)[C@H](NC(=O)[C@@H]1CCCN1C(=O)CNC(=O)[C@H](Cc1ccccc1)NC(=O)[C@H](CC(N)=O)NC(=O)[C@H](CC(N)=O)NC(=O)[C@H](CO)NC(=O)[C@H](CO)NC(=O)[C@H](Cc1c[nH]cn1)NC(=O)[C@@H](NC(=O)[C@H](CC(C)C)NC(=O)[C@H](Cc1ccccc1)NC(=O)[C@H](CC(N)=O)NC(=O)[C@H](C)NC(=O)[C@H](CC(C)C)NC(=O)[C@H](CCCNC(=N)N)NC(=O)[C@H](CCC(N)=O)NC(=O)[C@@H](NC(=O)[C@H](C)NC(=O)[C@@H]1CSSC[C@H](NC(=O)[C@@H](N)CCCCN)C(=O)N[C@@H](CC(N)=O)C(=O)N[C@@H]([C@@H](C)O)C(=O)N[C@@H](C)C(=O)N[C@@H]([C@@H](C)O)C(=O)N1)[C@@H](C)O)C(C)C)C(=O)N[C@@H](CC(C)C)C(=O)N1CCC[C@H]1C(=O)N1CCC[C@H]1C(=O)N[C@H](C(=O)N[C@@H](CC(N)=O)C(=O)N[C@H](C(=O)NCC(=O)N[C@@H](CO)C(=O)N[C@@H](CC(N)=O)C(=O)N[C@H](C(=O)N[C@@H](Cc1ccc(O)cc1)C(N)=O)[C@@H](C)O)C(C)C)[C@@H](C)O` [pramlintide, reference compound], the half-life is listed as 20 min.
